Data as given in US7572376B2, “Process for producing 1,3-propanediol” (Tate & Lyle Ingredients Americas, Inc., priority 2003, dated 2009).

What was measured:
[1] = hydrophobic parameter log P of solvents and contaminants; conditions: log P=[solute]octanol/[solute]water; value marked estimated
[2] = water dissolving in solvent extractant TBP; conditions: at certain temperatures used
[3] = solvent screen: PDO mixture with single solvents, distribution between solvent and aqueous phase; assay type: physicochemical; conditions: 30° C.
[4] = conc. in solvent phase / conc. in aqueous phase, aqueous solution 46% w/v PDO, 3.5% glycerol, […] glucose

## CCCCOP(=O)(OCCCC)OCCCC
[1]
  hydrophobic parameter log P (estimated): 2
[2]
  water that can dissolve in TBP: About 6%
[3]; [4]
  Distribution Coefficient Glucose: 0.016
  Distribution Coefficient Glycerol: 0.077
  Distribution Coefficient PDO: 0.203
[3]; distribution coefficient of PDO divided by that of glycerol
  Selectivity PDO/Glycerol: 2.65
